Measured values published in patent US6979436B2, “Opioid metallopeptide compositions and methods” (Palatin Technologies, Inc., priority 1999, dated 2005).

Amino acid sequences for entries named in this document (tags omitted). A change or cut given only in a name is not applied to a line headed by its entry.
UniProt P41144: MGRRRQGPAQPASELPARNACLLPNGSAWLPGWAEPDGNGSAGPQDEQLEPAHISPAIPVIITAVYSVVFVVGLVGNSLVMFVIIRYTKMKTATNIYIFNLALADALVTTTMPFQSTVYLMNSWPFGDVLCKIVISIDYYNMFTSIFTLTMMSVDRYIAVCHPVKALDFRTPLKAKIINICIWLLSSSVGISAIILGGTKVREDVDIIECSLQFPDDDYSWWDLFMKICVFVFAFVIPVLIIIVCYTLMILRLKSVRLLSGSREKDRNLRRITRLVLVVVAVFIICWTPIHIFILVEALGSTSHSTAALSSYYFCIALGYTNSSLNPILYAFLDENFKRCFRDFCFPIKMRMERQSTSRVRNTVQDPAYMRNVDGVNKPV

Target: κ opiate receptor (Cavia porcellus, UniProt P41144)
Assay: κ receptor binding assay, guinea-pig brain membrane, 3H-U69593 displacement
Conditions: read-out: Receptor Binding Assay [Ki in μM] Kappa Receptor

## Leu-Enkephalin [reference compound]
  Ki: 0.00214 µM
